The source of these data is patent publication US11331299B2, “Medicinal use of serrulatane diterpenes” (The University of Sydney, priority 2016, dated 2022).

Amino acid sequences for entries named in this document (tags omitted). Residues count along the entry.
UniProt P24530, 27-442: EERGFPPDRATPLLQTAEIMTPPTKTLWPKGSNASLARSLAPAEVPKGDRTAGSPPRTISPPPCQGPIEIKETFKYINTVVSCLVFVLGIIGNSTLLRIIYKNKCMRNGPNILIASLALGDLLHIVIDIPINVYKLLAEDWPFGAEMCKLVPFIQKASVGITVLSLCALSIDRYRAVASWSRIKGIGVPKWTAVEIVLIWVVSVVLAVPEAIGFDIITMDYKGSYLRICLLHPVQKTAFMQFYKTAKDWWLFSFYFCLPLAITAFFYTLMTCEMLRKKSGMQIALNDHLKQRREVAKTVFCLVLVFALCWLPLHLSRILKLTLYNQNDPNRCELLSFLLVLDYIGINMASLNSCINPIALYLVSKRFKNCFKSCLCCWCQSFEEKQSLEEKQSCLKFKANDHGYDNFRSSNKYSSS

In the assay the target is receptors (Bioprint panel) (Homo sapiens, UniProt P24530). The settings on record: read-out: Reference Compound IC50; […] (h) (agonist radioligand).

The term IC50 denotes the concentration at which inhibition is half-maximal. As for endothelin-3, the concentration for half-maximal inhibition (IC50) was found to be 0.017 nM.
